Active and inactive are the calls of the source. No cut-off for these calls is given here.

The source of these data is ChEMBL document CHEMBL5634187, “Identification of Selective Imidazopyridine CSF1R Inhibitors” (ACS Med Chem Lett, 2024).

The assay relates to Mus musculus. The assay can be described thus: Antiinflammatory activity in LPS-induced C3H/HeN mouse model assessed as reduction in TNF-alpha level in plasma at 25 to 100 mg/kg, po preadministered with compound for 45 mins followed by recombinant mouse M-CSF1 addition prior to LPS administration at […] and measured after 1.5 hrs. The format is functional, organism-based. To be noted: dose lower […], dose upper 100.0 mg/kg, time 5.0 hrs.

For the compound `COc1ccc(COc2ccc(Cn3cnc4cc(C#CC5CCNC5)cnc43)cc2OC)cn1` (stereo unspecified), the result was Active.
